Consider one compound from ChEMBL document CHEMBL4376867 (J Med Chem, 2020).

Protein sequences, listed by entry. Tags and fused reporters are not part of them. Lines headed by an entry give the natural chain unless they say otherwise; changes in a name come on top.
UniProt Q14164: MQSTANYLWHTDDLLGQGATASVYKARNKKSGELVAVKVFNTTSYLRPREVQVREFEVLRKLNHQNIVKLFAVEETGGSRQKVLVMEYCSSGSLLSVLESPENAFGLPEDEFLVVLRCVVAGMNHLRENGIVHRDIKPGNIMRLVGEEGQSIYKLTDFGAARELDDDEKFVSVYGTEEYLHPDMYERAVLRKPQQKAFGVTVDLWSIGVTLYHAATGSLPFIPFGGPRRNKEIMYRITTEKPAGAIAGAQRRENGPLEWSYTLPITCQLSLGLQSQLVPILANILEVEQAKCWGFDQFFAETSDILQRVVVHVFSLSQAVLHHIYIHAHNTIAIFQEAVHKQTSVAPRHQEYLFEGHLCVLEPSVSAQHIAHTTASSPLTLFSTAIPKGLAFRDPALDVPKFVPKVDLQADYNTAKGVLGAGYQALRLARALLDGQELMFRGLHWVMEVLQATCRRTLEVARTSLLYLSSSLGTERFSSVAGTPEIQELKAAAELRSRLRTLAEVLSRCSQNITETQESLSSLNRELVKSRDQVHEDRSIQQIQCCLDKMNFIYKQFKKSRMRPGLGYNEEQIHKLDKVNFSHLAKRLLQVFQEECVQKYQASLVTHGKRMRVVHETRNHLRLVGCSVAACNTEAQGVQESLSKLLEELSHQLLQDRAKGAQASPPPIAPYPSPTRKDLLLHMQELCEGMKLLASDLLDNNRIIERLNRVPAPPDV
UniProt Q9UHD2: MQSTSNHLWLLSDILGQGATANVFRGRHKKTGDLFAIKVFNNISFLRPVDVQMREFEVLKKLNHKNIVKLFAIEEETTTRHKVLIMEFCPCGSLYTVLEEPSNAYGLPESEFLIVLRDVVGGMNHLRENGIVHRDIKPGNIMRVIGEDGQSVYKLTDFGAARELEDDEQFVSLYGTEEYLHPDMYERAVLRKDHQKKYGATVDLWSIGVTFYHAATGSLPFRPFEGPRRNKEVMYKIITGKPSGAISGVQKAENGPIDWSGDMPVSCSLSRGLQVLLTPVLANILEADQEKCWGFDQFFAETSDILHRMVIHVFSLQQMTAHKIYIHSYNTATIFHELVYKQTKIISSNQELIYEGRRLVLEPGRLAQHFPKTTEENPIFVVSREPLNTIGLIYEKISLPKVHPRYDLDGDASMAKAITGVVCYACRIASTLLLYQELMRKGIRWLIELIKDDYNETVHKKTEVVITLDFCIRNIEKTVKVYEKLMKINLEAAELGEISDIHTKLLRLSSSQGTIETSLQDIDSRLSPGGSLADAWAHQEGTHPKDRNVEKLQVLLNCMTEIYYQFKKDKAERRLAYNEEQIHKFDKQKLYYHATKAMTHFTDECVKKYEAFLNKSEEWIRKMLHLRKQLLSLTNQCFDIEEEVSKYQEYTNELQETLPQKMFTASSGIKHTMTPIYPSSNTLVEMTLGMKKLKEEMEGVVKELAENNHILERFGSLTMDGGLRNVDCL

Each structure is given as a SMILES string.

In general, IC50 refers to the point on the concentration scale where inhibition reaches its midpoint.

The target of this assay is IKK epsilon/TBK1 (Homo sapiens, UniProt Q14164+Q9UHD2). The assay can be described thus: Inhibition of IKKepsilon/TBK1 in human MDB-MB-231 cells transduced with lentiviral vector expressing human IRF3 assessed as decrease in poly(I:C)-stimulated IRF3 phosphorylation at S385/386 residues preincubated for 1 hr followed by poly(I:C) addition and measured after 1 hr. The format is cell-based.

For `Cc1cc(-c2ccc3nc(Nc4cc(CN5CCN(C(=O)CC(F)(F)F)CC5)ccn4)[nH]c3c2)ncn1`, the IC50 was determined as 773 nM.
